The experiment concerns the target Cannabinoid receptor 1 (Homo sapiens, UniProt P21554). Put plainly: Displacement of [3H]CP 55940 from human CB1 receptor in cell free system.

Amino acid sequences for entries named in this document (tags omitted).
UniProt P21554, whole entry: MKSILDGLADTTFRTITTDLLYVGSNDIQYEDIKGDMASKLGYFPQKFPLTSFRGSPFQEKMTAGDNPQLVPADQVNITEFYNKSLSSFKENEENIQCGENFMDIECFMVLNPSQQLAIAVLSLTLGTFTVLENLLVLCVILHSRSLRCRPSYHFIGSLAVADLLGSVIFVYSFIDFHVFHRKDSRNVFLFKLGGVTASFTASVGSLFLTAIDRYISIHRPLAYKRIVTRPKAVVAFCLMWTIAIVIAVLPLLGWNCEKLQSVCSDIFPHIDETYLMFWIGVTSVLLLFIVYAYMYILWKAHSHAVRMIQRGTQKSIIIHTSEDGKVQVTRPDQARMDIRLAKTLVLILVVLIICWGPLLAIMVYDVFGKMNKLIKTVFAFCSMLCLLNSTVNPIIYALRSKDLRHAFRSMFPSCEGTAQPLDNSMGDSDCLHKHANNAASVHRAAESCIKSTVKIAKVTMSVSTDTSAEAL

SMILES strings stand for the structures.

The molecule `Cc1ccc(Cn2nc(C(=O)N[C@@H]3C(C)(C)[C@@H]4CC[C@@]3(C)C4)cc2-c2ccc(Cl)c(C)c2)cc1` [SR-144528] came in with a Ki of 2890 nM.

The values above are taken from ChEMBL document CHEMBL1667752 (Eur J Med Chem, 2011).
